Here are results for one compound from ChEMBL document CHEMBL2057126, “Discovery of new inhibitors of Cdc25B dual specificity phosphatases by structure-based virtual screening” (J Med Chem, 2012).

Broadly, the IC50 is the midpoint of a concentration-inhibition curve. As a reminder, the Ki is a dissociation constant, usually derived from enzyme kinetics or from competition with a known ligand.

Assay [1] concerns the target T1, M-phase inducer phosphatase 2 (Homo sapiens, UniProt P30305).
T1 sequence (P30305 whole entry): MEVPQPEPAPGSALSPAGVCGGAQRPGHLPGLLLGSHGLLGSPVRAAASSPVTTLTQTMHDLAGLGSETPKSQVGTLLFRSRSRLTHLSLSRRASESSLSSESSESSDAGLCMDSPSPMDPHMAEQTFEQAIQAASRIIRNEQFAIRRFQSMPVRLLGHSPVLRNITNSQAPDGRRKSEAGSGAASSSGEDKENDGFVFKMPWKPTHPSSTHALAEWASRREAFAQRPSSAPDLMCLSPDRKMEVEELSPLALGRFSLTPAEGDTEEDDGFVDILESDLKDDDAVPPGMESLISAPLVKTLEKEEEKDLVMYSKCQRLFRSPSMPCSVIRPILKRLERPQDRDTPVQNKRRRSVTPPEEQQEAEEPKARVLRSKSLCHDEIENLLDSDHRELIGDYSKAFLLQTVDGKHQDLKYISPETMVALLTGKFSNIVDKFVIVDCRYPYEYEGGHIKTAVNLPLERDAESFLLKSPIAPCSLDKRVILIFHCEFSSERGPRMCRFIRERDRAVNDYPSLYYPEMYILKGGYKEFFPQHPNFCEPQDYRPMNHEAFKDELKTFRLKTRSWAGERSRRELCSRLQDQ
As to the kind of experiment: Inhibition of recombinant phosphatase activity of Cdc25B catalytic domain expressed in Escherichia coli BL21(DE3) using OMFP as substrate by spectrofluorimetric analysis. Put shortly: (§1)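 Purified Cdc25B catalytic domain, 10 nM, assayed by rate of OMFP hydrolysis. For IC50, substrate fixed at 25 μM and inhibitor concentration varied; activity expressed as percent of no-inhibitor control. For Ki and inhibition type, Lineweaver–Burk plots built from 1–25 μM OMFP without or with fixed inhibitor concentrations. Averages ± SD of three determinations.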

In assay [2] the target is M-phase inducer phosphatase 2 (Homo sapiens) (UniProt P30305). As to the kind of experiment: Inhibition of recombinant phosphatase activity of Cdc25B catalytic domain expressed in Escherichia coli BL21(DE3) using OMFP as substrate in presence of recombinant superoxide dismutase.
In assay [3] the target is T2, M-phase inducer phosphatase 1 (Homo sapiens, UniProt P30304).
T2 sequence (P30304 whole entry): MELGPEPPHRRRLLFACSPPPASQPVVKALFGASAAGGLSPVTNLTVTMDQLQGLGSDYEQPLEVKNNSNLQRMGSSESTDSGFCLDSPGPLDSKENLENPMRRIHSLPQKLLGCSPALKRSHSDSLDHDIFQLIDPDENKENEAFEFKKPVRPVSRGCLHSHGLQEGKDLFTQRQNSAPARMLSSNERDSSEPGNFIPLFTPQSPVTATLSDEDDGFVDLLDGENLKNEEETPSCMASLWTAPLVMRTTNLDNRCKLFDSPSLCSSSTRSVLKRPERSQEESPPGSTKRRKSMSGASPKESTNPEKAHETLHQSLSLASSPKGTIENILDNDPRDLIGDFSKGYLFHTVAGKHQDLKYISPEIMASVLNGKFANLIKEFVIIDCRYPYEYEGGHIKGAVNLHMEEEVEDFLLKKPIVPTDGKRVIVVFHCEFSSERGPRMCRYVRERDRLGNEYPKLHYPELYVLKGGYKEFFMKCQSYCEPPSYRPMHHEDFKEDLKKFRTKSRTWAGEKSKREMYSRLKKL
As to the kind of experiment: Inhibition of recombinant phosphatase activity of Cdc25A catalytic domain expressed in Escherichia coli BL21(DE3) using OMFP as substrate by spectrofluorimetric analysis. An outline of the steps: (§2)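 Purified recombinant Cdc25A catalytic domain; phosphatase activity measured as OMFP hydrolysis versus inhibitor concentration to derive IC50, with Ki calculated from kinetic measurements. Results are averages ± SD of three determinations.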

For assay [4], the target named is T1, M-phase inducer phosphatase 2. As to the kind of experiment: Competitive inhibition of recombinant phosphatase activity of Cdc25B catalytic domain expressed in Escherichia coli BL21(DE3) using OMFP as substrate by Lineweaver-Burk plot analysis. An outline of the steps: as §1
The target in assay [5] is T2, M-phase inducer phosphatase 1. As to the kind of experiment: Inhibition of recombinant phosphatase activity of Cdc25A catalytic domain expressed in Escherichia coli BL21(DE3) using OMFP as substrate by Lineweaver-Burk plot analysis. Put shortly:
as §2

With `O=C(O)CCc1c2ccc(=O)c(O)c-2oc2c(O)c(O)ccc12`, the IC50 in assay [1] was 100 nM; in assay [2], 330 nM; in assay [3], 240 nM. Moreover, the results for the Ki in assay [4] and in assay [5] were 80 nM and 70 nM, respectively.
